The source of these data is patent US6936585B2, “Corticotropin releasing factor 2 receptor agonists” (priority 2002, dated 2005).

The structures appear in SMILES notation.

Assay [1] addresses T1, CRF1R (Homo sapiens, UniProt P34998).
T1 sequence (P34998 24-415): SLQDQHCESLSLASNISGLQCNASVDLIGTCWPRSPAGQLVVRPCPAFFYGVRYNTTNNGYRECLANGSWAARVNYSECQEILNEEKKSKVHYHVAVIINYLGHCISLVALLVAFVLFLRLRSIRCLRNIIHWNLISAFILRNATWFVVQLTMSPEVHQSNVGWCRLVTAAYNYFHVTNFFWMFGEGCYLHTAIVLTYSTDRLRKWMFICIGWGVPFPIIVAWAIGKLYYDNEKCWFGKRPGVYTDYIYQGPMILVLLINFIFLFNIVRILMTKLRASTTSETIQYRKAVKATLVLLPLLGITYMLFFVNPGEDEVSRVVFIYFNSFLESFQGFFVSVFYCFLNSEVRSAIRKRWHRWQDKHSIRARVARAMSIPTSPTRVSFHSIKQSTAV
The assay can be described thus: CRF1R agonist activation (EC50 / Emax), called comparative CRF binding. In kind it is cell-based. Particulars: for Emax: read-out: CRF1R Emax; for EC50: CRF1R EC50. In a few lines:
(§1)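 CRFR-expressing cells + peptide vs vehicle; read-out cAMP (lysate assay) or CRE-linked reporter expression (luciferase, CAT, fluorescent protein, alkaline phosphatase, etc.). Signal compared against vehicle-treated cells.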

Assay [2] has as its target T2, CRF2R (Homo sapiens, UniProt Q13324).
T2 sequence (Q13324 1-411): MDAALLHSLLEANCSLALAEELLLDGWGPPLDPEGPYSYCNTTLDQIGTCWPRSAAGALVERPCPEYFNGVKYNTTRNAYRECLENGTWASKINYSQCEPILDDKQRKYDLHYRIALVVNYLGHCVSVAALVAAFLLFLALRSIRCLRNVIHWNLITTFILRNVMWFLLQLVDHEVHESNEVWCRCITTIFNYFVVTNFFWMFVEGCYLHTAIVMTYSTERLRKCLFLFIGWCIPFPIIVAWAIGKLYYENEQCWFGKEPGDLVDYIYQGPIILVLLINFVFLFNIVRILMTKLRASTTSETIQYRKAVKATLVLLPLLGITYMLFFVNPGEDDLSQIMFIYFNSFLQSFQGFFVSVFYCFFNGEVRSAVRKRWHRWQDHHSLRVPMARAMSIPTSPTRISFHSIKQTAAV
As to the kind of experiment: CRF2R agonist activation (EC50 / Emax), called comparative CRF binding. The settings on record: for Emax: read-out: CRF2R Emax. It is filed as cell-based. In a few lines: as §1

As for `CC[C@H](C)[C@H](NC(=O)[C@H](CCC(=O)O)NC(=O)[C@@H](NC(=O)[C@H](CCSC)NC(=O)[C@H](CCCCN)NC(=O)[C@H](CCCNC(=N)N)NC(=O)[C@H](CC(C)C)NC(=O)[C@H](CC(C)C)NC(=O)[C@H](CCC(N)=O)NC(=O)[C@H](Cc1ccccc1)NC(=O)[C@@H]1CCCN1C(=O)[C@H](CC(C)C)NC(=O)[C@H](CC(=O)O)NC(=O)[C@@H](NC(=O)[C@H](CO)NC(=O)[C@@H](NC(=O)[C@@H]1CCCN1C(=O)[C@@H]1CCCN1C(=O)CNC(=O)[C@@H]1CCC(=O)N1)[C@@H](C)CC)[C@@H](C)CC)[C@@H](C)CC)C(=O)N[C@@H](CCC(=O)O)C(=O)N[C@@H](CCCCN)C(=O)N[C@@H](CCC(N)=O)C(=O)N[C@@H](CCC(=O)O)C(=O)N[C@@H](CCCCN)C(=O)N[C@@H](CCC(=O)O)C(=O)N[C@@H](CCCCN)C(=O)N[C@@H](CCC(N)=O)C(=O)N[C@@H](CCC(N)=O)C(=O)N[C@@H](C)C(=O)N[C@H](C(=O)N[C@H](C(=O)N[C@@H](CC(N)=O)C(=O)N[C@@H](C)C(=O)N[C@@H](CCCNC(=N)N)C(=O)N[C@@H](CC(C)C)C(=O)N[C@@H](CC(C)C)C(=O)N[C@@H](CC(=O)O)C(=O)N[C@H](C(=O)N[C@H](C(N)=O)C(C)C)[C@@H](C)O)[C@@H](C)O)[C@@H](C)O` [compound 20], the Emax (as a rule, the size of the effect at its maximum, as opposed to the concentration needed) in assay [1] came out at 60%; in assay [2], 99%.
With `CC[C@H](C)[C@H](NC(=O)[C@@H](NC(=O)[C@H](C)NC(=O)[C@H](CC(C)C)NC(=O)[C@H](CC(C)C)NC(=O)[C@H](CC(C)C)NC(=O)[C@H](C)NC(=O)[C@H](CC(N)=O)NC(=O)[C@H](CC(N)=O)NC(=O)[C@H](C)NC(=O)[C@H](C)NC(=O)[C@H](CCC(N)=O)NC(=O)[C@H](CCC(N)=O)NC(=O)[C@H](CCCCN)NC(=O)[C@H](CCC(=O)O)NC(=O)[C@H](CCCCN)NC(=O)[C@H](CCC(=O)O)NC(=O)[C@H](CCC(N)=O)NC(=O)[C@H](CCCCN)NC(=O)[C@H](CCC(=O)O)NC(=O)[C@@H](NC(=O)[C@H](CCC(=O)O)NC(=O)[C@@H](NC(=O)[C@H](CCSC)NC(=O)[C@H](CCCCN)NC(=O)[C@H](CCC(=O)O)NC(=O)[C@H](CC(C)C)NC(=O)[C@H](CC(C)C)NC(=O)[C@H](CCC(N)=O)NC(=O)[C@H](CC(C)C)NC(=O)[C@@H]1CCCN1C(=O)[C@H](CC(C)C)NC(=O)[C@H](CC(=O)O)NC(=O)[C@@H](NC(=O)[C@H](CO)NC(=O)[C@@H](NC(=O)[C@@H]1CCCN1C(=O)[C@@H]1CCCN1C(=O)CNC(=O)[C@@H]1CCC(=O)N1)[C@@H](C)CC)[C@@H](C)CC)[C@@H](C)CC)[C@@H](C)CC)[C@@H](C)O)C(N)=O` [compound 249], in assay [1], the concentration for a half-maximal effect (EC50) (in general, the concentration giving half of the maximal effect) is at least 1000 nM and the maximal effect (Emax) was 50%. Besides, in assay [2], a half-maximal response (EC50) required 12.2 nM and the maximum response (Emax) stood at 92%.
With `CC[C@H](C)[C@H](NC(=O)[C@H](CCCNC(=N)N)NC(=O)[C@H](C)NC(=O)[C@H](CC(C)C)NC(=O)[C@H](CC(C)C)NC(=O)[C@H](CCCNC(=N)N)NC(=O)[C@H](C)NC(=O)[C@H](CC(N)=O)NC(=O)[C@H](CC(N)=O)NC(=O)[C@H](C)NC(=O)[C@H](C)NC(=O)[C@H](CCC(N)=O)NC(=O)[C@H](CCC(N)=O)NC(=O)[C@H](CCCCN)NC(=O)[C@H](CCC(=O)O)NC(=O)[C@H](CCCCN)NC(=O)[C@H](CCC(=O)O)NC(=O)[C@H](CCC(N)=O)NC(=O)[C@H](CCCCN)NC(=O)[C@H](CCC(=O)O)NC(=O)[C@@H](NC(=O)[C@H](CCC(=O)O)NC(=O)[C@@H](NC(=O)[C@@H](NC(=O)[C@H](CCCCN)NC(=O)[C@H](CCCNC(=N)N)NC(=O)[C@H](CC(C)C)NC(=O)[C@H](CC(C)C)NC(=O)[C@@H](NC(=O)[C@@H](NC(=O)[C@@H]1CCCN1C(=O)[C@H](CC(C)C)NC(=O)[C@H](CC(=O)O)NC(=O)[C@@H](NC(=O)[C@H](CO)NC(=O)[C@@H](NC(=O)[C@@H]1CCCN1C(=O)[C@@H]1CCCN1C(=O)CNC(=O)[C@@H]1CCC(=O)N1)[C@@H](C)CC)[C@@H](C)CC)[C@@H](C)CC)[C@@H](C)CC)C(C)C)[C@@H](C)CC)[C@@H](C)CC)C(N)=O` [compound 295], the values for the maximal response (Emax) in assay [1] and in assay [2] were 5.3% and 67.6%, respectively.
As for `CC[C@H](C)[C@H](NC(=O)[C@@H](NC(=O)[C@H](CC(=O)O)NC(=O)[C@H](CC(C)C)NC(=O)[C@H](CC(C)C)NC(=O)[C@H](CC(C)C)NC(=O)[C@H](CCCNC(=N)N)NC(=O)[C@H](CC(N)=O)NC(=O)[C@H](CC(N)=O)NC(=O)[C@H](C)NC(=O)[C@H](C)NC(=O)[C@H](CCC(N)=O)NC(=O)[C@H](CCC(N)=O)NC(=O)[C@H](CCCCN)NC(=O)[C@H](CCC(=O)O)NC(=O)[C@H](CCCCN)NC(=O)[C@H](CCC(=O)O)NC(=O)[C@H](CCC(N)=O)NC(=O)[C@H](CCCCN)NC(=O)[C@H](CCC(=O)O)NC(=O)[C@@H](NC(=O)[C@H](CCC(=O)O)NC(=O)[C@@H](NC(=O)[C@H](CCSC)NC(=O)[C@H](CCCCN)NC(=O)[C@H](CCCNC(=N)N)NC(=O)[C@H](CC(C)C)NC(=O)[C@H](CC(C)C)NC(=O)[C@H](Cc1ccc(O)cc1)NC(=O)[C@H](CCCCN)NC(=O)[C@@H]1CCCN1C(=O)[C@H](CC(C)C)NC(=O)[C@H](CC(=O)O)NC(=O)[C@@H](NC(=O)[C@H](CO)NC(=O)[C@@H](NC(=O)[C@@H]1CCCN1C(=O)[C@@H]1CCCN1C(=O)CNC(=O)[C@@H]1CCC(=O)N1)[C@@H](C)CC)[C@@H](C)CC)[C@@H](C)CC)[C@@H](C)CC)[C@@H](C)O)C(N)=O` [compound 58], the Emax worked out at 16% in assay [1] and 100% in assay [2].
For the molecule `CC[C@H](C)[C@H](NC(=O)[C@H](CCC(=O)O)NC(=O)[C@@H](NC(=O)[C@H](CCSC)NC(=O)[C@H](CCCCN)NC(=O)[C@H](CCC(=O)O)NC(=O)[C@H](CC(C)C)NC(=O)[C@H](CC(C)C)NC(=O)[C@H](CCC(N)=O)NC(=O)[C@H](CC(C)C)NC(=O)[C@@H]1CCCN1C(=O)[C@H](CC(C)C)NC(=O)[C@H](CC(=O)O)NC(=O)[C@@H](NC(=O)[C@H](CO)NC(=O)[C@@H](NC(=O)[C@@H]1CCCN1C(=O)[C@@H]1CCCN1C(=O)CNC(=O)[C@@H]1CCC(=O)N1)[C@@H](C)CC)[C@@H](C)CC)[C@@H](C)CC)C(=O)N[C@@H](CCC(=O)O)C(=O)N[C@@H](CCCCN)C(=O)N[C@@H](CCC(N)=O)C(=O)N[C@@H](CCC(=O)O)C(=O)N[C@@H](CCCCN)C(=O)N[C@@H](CCC(=O)O)C(=O)N[C@@H](CCCCN)C(=O)N[C@@H](CCC(N)=O)C(=O)N[C@@H](CCC(N)=O)C(=O)N[C@@H](C)C(=O)N[C@H](C(=O)N[C@H](C(=O)N[C@@H](CC(N)=O)C(=O)N[C@@H](C)C(=O)N[C@@H](CCCNC(=N)N)C(=O)N[C@@H](CC(C)C)C(=O)N[C@@H](CC(C)C)C(=O)N[C@@H](CC(=O)O)C(=O)N[C@@H](CCCNC(=N)N)C(=O)N[C@H](C(N)=O)C(C)C)[C@@H](C)O)[C@@H](C)O` [compound 247], the EC50 in assay [1] was at least 1000 nM; in assay [2], 18.8 nM. Also, the Emax in assay [1] was determined as 34%; in assay [2], 100%.
For `CC[C@H](C)[C@H](NC(=O)[C@@H](NC(=O)[C@H](CC(=O)O)NC(=O)[C@H](CC(C)C)NC(=O)[C@H](CC(C)C)NC(=O)[C@H](CC(C)C)NC(=O)[C@H](CCCNC(=N)N)NC(=O)[C@H](CC(N)=O)NC(=O)[C@H](CC(N)=O)NC(=O)[C@H](C)NC(=O)[C@H](C)NC(=O)[C@H](CCC(N)=O)NC(=O)[C@H](CCC(N)=O)NC(=O)[C@H](CCCCN)NC(=O)[C@H](CCC(=O)O)NC(=O)[C@H](CCCCN)NC(=O)[C@H](CCC(=O)O)NC(=O)[C@H](CCC(N)=O)NC(=O)[C@H](CCCCN)NC(=O)[C@H](CCC(=O)O)NC(=O)[C@@H](NC(=O)[C@H](CCC(=O)O)NC(=O)[C@@H](NC(=O)[C@H](CCSC)NC(=O)[C@H](CCCCN)NC(=O)[C@H](CCCNC(=N)N)NC(=O)[C@H](CC(C)C)NC(=O)[C@H](CC(C)C)NC(=O)CNC(=O)[C@H](Cc1ccccc1)NC(=O)[C@@H]1CCCN1C(=O)[C@H](CC(C)C)NC(=O)[C@H](CC(=O)O)NC(=O)[C@@H](NC(=O)[C@H](CO)NC(=O)[C@@H](NC(=O)[C@@H]1CCCN1C(=O)[C@@H]1CCCN1C(=O)CNC(=O)[C@@H]1CCC(=O)N1)[C@@H](C)CC)[C@@H](C)CC)[C@@H](C)CC)[C@@H](C)CC)[C@@H](C)O)C(N)=O` [compound 68], the figures for the Emax in assay [1] and in assay [2] were 33% and 74%, respectively.
